In experiment [1] the test system is H1975. Nature of the experiment: Impedance-based TCRP of H1975 cells, constitutive EGFR activation. The experiment is classed as cell-based. The settings on record: from 0 to 20 uM.
The test system of experiment [2] is A431. The experiment is described as follows: Impedance-based TCRP of A431 cells, constitutive EGFR activation. The experiment is classed as cell-based. The note with it: from 0 to 20 uM.

We go through 1 molecule from patent publication US10620188B2, “Using impedance-based cell response profiling to identify putative inhibitors for oncogene addicted targets or pathways” (ACEA Biosciences, Inc., priority 2002, dated 2020).

Take `C=CC(=O)Nc1cccc(Oc2nc(Nc3ccc(N4CCN(C)CC4)cc3OC)ncc2Cl)c1` [WZ4002]: the “TCRP (Cell Index response)” value in experiment [1] is “dose-dependent short-term and long-term decrease in Cell Index”; in experiment [2], “dose-dependent short-term and long-term decrease in Cell Index”.
